Data published in patent US20040131545A1, “Amyloid plaque aggregation inhibitors and diagnostic imaging agents” (Trustees of the University of Pennsylvania, priority 2001, published 2004).

Amino acid sequences for entries named in this document (tags omitted). Residues count along the entry.
UniProt P05067, 672-713 limits assumed: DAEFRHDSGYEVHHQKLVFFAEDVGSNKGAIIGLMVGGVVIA
UniProt P05067, 672-711 limits assumed: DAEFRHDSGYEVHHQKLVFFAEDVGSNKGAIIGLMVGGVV

How the values were obtained:
[1] = biological target: T1, aggregates of Aβ(1-42) (Homo sapiens, UniProt P05067); experiment: Inhibition of [125I]3 binding to aggregated Aβ(1-42) peptide in solution; settings: 25° C.; mean±SEM of three independent experiments; read-out: Inhibition constants (Ki) on ligand binding to aggregates of Aβ(1-42) vs [^125I]3
T1 construct: The solid forms of peptides Aβ(1-40) and Aβ(1-42) were purchased; purchased Bachem (King of Prussia, Pa.)
Description: (§1) The solid forms of peptides Aβ(1-40) and Aβ(1-42) were purchased from Bachem (King of Prussia, Pa.). Aggregation of peptides were carried out by gently dissolving the peptide [0.5 mg/mL for Aβ(1-40) and 0.25 mg/mL for Aβ (1-42) in a buffer solution (pH 7.4) containing 10 mM sodium phosphate and 1 mM EDTA. The solutions were incubated at 37° C. for 36-42 h with gentle and constant shaking. Binding studies were carried out in 12×75 mm borosilicate glass tubes according to the procedure described with some modifications (Klunk, W. E., et al., Biol. Psychiatry 35:627 (1994)). Aggregated fibrils (10-50 nM in the final assay mixture) were added to the mixture containing […] of radioligands (0.01-0.5 nM) in 40% EtOH and 10% EtOH in a final volume of 1 mL for saturation studies. […] The mixture was incubated at room temperature for 3 h and the bound and the free radioactivity were separated by vacuum filtration through Whatman GF/B filters using a Brandel M-24R cell harvester followed by 2×3 mL washes of 10% ethanol at room temperature. Filters containing the bound I-125 ligand were counted in a gamma counter (Packard 5000) with 70% counting efficiency. The results of saturation and inhibition experiments were subjected to nonlinear regression analysis using software EBDA52 by which Kd and Ki values were calculated. […]

[2] = biological target: T2, aggregates of Aβ(1-40) (Homo sapiens, UniProt P05067); experiment: Inhibition of [125I]3 binding to aggregated Aβ(1-40) peptide in solution; settings: 25° C.; mean±SEM of three independent experiments; read-out: Inhibition constants (Ki) on ligand binding to aggregates of Aβ(1-40) vs [^125I]3
T2 construct: The solid forms of peptides Aβ(1-40) and Aβ(1-42) were purchased; purchased Bachem (King of Prussia, Pa.)
Description: as §1

Cc1ccc2c(c1)sc(-c1ccc(N(C)C)cc1)[n+]2C [Thioflavin T, reference compound]
Ki [1]: 294 ± 40 nM | Ki [2]: 116 ± 20 nM
